# Entries after “also recorded” stand apart in the source; their conditions may differ. Where two headings read alike, the source gives them in different places.
# What was measured:
# [1] = in vivo
# [2] = field cycling at 35° C.
# [3] = rat, in vivo
# [4] = rat, in vivo; remark: listed apart in the source
# [5] = rat, in vivo; remark: listed apart in the source
# [6] = 1440 min
# [7] = solubility and stability in hydrophilic and lipophilic solvents
# [8] = i.v. 0.04 mmol/kg, Day 0, average
# [9] = i.v. 0.04 mmol/kg, Day 1, average
# [10] = i.v. 0.04 mmol/kg, Day 3, average
# [11] = i.v. 0.04 mmol/kg, Day 7, average
substance,measurement,setting,value
manganese (III) mesoporphyrin [Mn mesoporphyrin],changes in laboratory values,"i.v. 0.04 mmol/kg, 6 rabbits vs 2 controls",no significant systematic changes
same,Alk. Phos.,[8],58
same,Amylase,[8],174.67
same,BUN,[8],26.33
same,Bilirubin,[8],0.23
same,CO2,[8],22.17
same,CRT (creatinine),[8],0.97
same,GAP,[8],13.17
same,GOT,[8],15.83
same,GPT,[8],42
same,Glucose,[8],107.67
same,K^+,[8],5.4
same,LDH,[8],593.83
same,Na^+,[8],137.17
same,Alk. Phos.,[9],57.33
same,Amylase,[9],222.67
same,BUN,[9],25.17
same,Bilirubin,[9],0.18
same,CO2,[9],21.67
same,GAP,[9],14.5
same,GOT,[9],12.5
same,GPT,[9],48.5
same,Glucose,[9],122.83
same,K^+,[9],5.28
same,LDH,[9],1026
same,Na^+,[9],140.67
same,Alk. Phos.,[10],58.17
same,Amylase,[10],212.17
same,BUN,[10],26.67
same,Bilirubin,[10],0.37
same,CO2,[10],21.83
same,CRT (creatinine),[10],1.13
same,GAP,[10],15.33
same,GOT,[10],23.33
same,GPT,[10],55.33
same,Glucose,[10],169.33
same,K^+,[10],6.33
same,LDH,[10],414.83
same,Na^+,[10],140.5
same,Alk. Phos.,[11],49.17
same,Amylase,[11],189
same,BUN,[11],24.33
same,Bilirubin,[11],0.25
same,CO2,[11],22
same,CRT (creatinine),[11],0.98
same,GAP,[11],12.5
same,GOT,[11],11.33
same,GPT,[11],44.5
same,Glucose,[11],139.67
same,K^+,[11],4.73
same,LDH,[11],275
same,Na^+,[11],134.17
same,safety conclusion,"intravenous or oral, normal animals and animals with extensive liver disease",can be administered safely at an effective dose
same,first pass uptake by the liver,[1],relatively high first pass uptake by the liver
same,T1 relaxivity (R1),[2],6 L (mmol/sec^-1)
same,biliary excretion / enterohepatic circulation,[3],may be excreted in the bile and undergoes enterohepatic circulation
same,excretion with cholestyramine,[3],substantially further increased by administration of cholestyramine
same,time within which the majority of an i.v. dose is excreted in the feces,[3]; iv,≤ 72 h
same,time within which compound is largely cleared from the liver and into the feces,[4],≤ 72 h
same,uptake and excretion route,[4],preferentially taken up by the normal liver and excreted through the hepatobiliary system
same,skin discoloration,[5],color of the rats' skin did not change
same,octanol:water partition coefficient (ratio),[6],25.98:1
same,change in pH over time in 10% DMSO,"[7]; 10% DMSO in saline, compared with the other two lipid solvents",smaller change in pH over time; also recorded: minimal pH fluctuation
same,precipitation at physiologic proton concentrations,[7]; K2PO4 buffer and ethanol-containing solutions,precipitation was observed
